Assay results reported in article PMC8418037, “Immunomodulatory effect of standardized C. asiatica extract on a promotion of regulatory T cells in rats” (BMC Complementary Medicine and Therapies, 2021).

Experiments:
[1] = Plasma pharmacokinetics of asiaticoside and madecassoside (LC-MS/MS, non-compartmental analysis)
Method: (§1) Rats, weighing more than 400 g, were put in metabolic cages and fasted overnight with free access to water before experiments. […] The intravenous preparations were freshly dissolved in 20% DMSO/NSS for injection. The oral preparations were freshly prepared by suspending the test compound in 0.5% CMC. To reduce pain and injury during drug administration and blood collection, rats were anesthetized with 5% isoflurane by chamber induction. Serial blood samples (300 μL) were collected at 0, 5, 15, and 30 min, and at 1, 2, 4, 8, and 24 h after dosing. Blood samples were centrifuged at 5000 g for 10 min, and plasma was collected and stored at − 20 °C until analysis. Determination of aspartate transaminase (AST), alanine transaminase (ALT), and creatinine levels were performed at pre-dosing, and at 0 h and 24 h after dosing. Creatinine level was determined by enzymatic Roche Cobas 6000 analyzer. In this enzymatic method creatinine is converted to creatine under the activity of creatininase. Creatine is then acted upon by creatinase to form sarcosine and urea. Sarcosine oxidase converts sarcosine to glycine and hydrogen peroxide, and the hydrogen peroxide reacts with chromophore in the presence of peroxidase to produce a color product that is measured at 546 nm (secondary wavelength = 700 nm). This is an endpoint reaction that agrees well with recognized HPLC methods, and it has the advantage over Jaffe picric acid-based methods that are susceptible to interferences from non-creatinine chromogens. For tissue collection, the rats was euthanized with isoflurane after oral dosing the test compound at 100 mg/kg for 7 days. After the dead was confirmed, spleen and blood were immediately collected, washed with normal saline solution, and send to immunology laboratory for further experiments. The control group received oral gavage of 0.5% CMC as vehicle control. All animal procedures were complied with the ethical principles and guidelines for the use of animals (National Research Council of Thailand, 2015).
Protein precipitation by methanol was applied for preparation of LC-MS/MS samples. Briefly, plasma sample (50 μL) was mixed with 200 μL of methanol containing 10 ng of IS. The mixture was centrifuged at 10,000 g for 10 min and 10 μL of supernatant then injected for analysis by the LC-MS/MS system. Validation of the bioanalytical method of bioactive triterpenoid determination was based on previous study by our groups. In brief, LC-MS/MS was performed on a Nexera ultra high-performance liquid chromatograph and 8060 triple quadrupole mass spectrometers (Shimadzu Co., Ltd., Japan). The stationary phase was Synergi Fusion-RP C18 column (Phenomenex Inc., USA) with 40 °C oven temperature. The mobile phase was 100% methanol and 0.2% formic acid in water with gradient elution. The flow rate was 0.5 mL/min and the volume of injection 10 μL.
(§2) All pharmacokinetic parameters were computed by non-compartmental analysis using PK Solution 2.0 software (Summit Research Service, USA). […] The absolute oral bioavailability was calculated as (AUCp.o. ÷ dose p.o.) ÷ (AUCi.v. ÷ dose i.v.). Pharmacokinetic data are presented as mean ± standard deviation. Blood chemical parameters were analyzed by Mann–Whitney U-test to compare the significance of differences between pre-dosing and 24 h post-dosing, with a p-value of less than 0.05. All statistical analyses were calculated using SPSS version 16 (SPSS, Inc., USA). […] The data were analyzed with an unpaired Student’s t-test. A p-value of < 0.05 was considered statistically significant.

[2] = In vivo tolerability: physical appearance, creatinine, AST, ALT, pre-dose vs 24 h post-dose; settings: n = 6
Method: as §1, §2

[3] = Asiaticoside 4 mg/kg IV, analyte asiaticoside
[4] = pure compound IV (asiaticoside 4.0 mg/kg, madecassoside 5.0 mg/kg)
[5] = 24 h after dosing, asiaticoside IV 4 mg/kg, madecassoside IV 5 mg/kg, ECa 233 PO 100 mg/kg, mean ± SD
[6] = pre-dose baseline of the group, mean ± SD

## asiaticoside
[1]; [3]
  AUC0-inf: 7605.43 ± 12,142.80 μg.h/L
  CL: 2.25 ± 1.66 L/h/kg
  MRT: 44.4 ± 18.6 min
  T1/2: 58.8 ± 33.6 min
  Vd: 3.27 ± 3.91 L/kg
[1]; Asiaticoside 4 mg/kg IV, analyte asiaticoside, 0-24 h, mean ± SD, n = 6
  AUC0-t: 7588.69 ± 12,144.79 μg.h/L
[1]; [4]
  Maximum plasma level after intravenous injection: approximately 3000 μg/L
  Plasma concentration at 8 h after dosing: approximately 10 μg/L
[2]; [5]
  ALT, Post-dose (24 h): 27.40 ± 5.32 U/L
  AST, Post-dose (24 h): 54.80 ± 9.20 U/L
  Creatinine, Post-dose (24 h): 0.61 ± 0.04 mg/dL
[2]; 24 h after dosing, asiaticoside IV 4 mg/kg, madecassoside IV 5 mg/kg, ECa 233 PO 100 mg/kg
  Physical appearance, Post-dose (24 h): Normal
[2]; pre-dose baseline of the group, asiaticoside IV 4 mg/kg, madecassoside IV 5 mg/kg, ECa 233 PO 100 mg/kg
  Physical appearance, Pre-dose (0 h): Normal
[2]; [6]
  ALT, Pre-dose (0 h): 26.80 ± 3.83 U/L
  AST, Pre-dose (0 h): 42.40 ± 14.54 U/L
  Creatinine, Pre-dose (0 h): 0.60 ± 0.03 mg/dL
